{"source": "patent US12280039B2", "about": "“Cancer vaccine compositions and methods of use thereof” (priority 2018, dated 2025)", "test_system": "live 4T1 tumor cells", "experiment": "Serum IgG antibody binding to live 4T1 tumor cells", "assay_type": "in vivo, mice", "conditions": "serum IgG on live 4T1 cells"}
{"smiles": "CC(C)Cn1cnc2c(N)nc3ccccc3c21", "note": "[Imiquimod, imiquimod]", "values": [{"measurement": "mice having very high staining", "value": "3 of the 5"}]}
